Test results from ChEMBL document CHEMBL1127294, “Development of a model for the delta opioid receptor pharmacophore. 1. Conformationally restricted Tyr1 replacements in the cyclic delta receptor selective tetrapeptide Tyr-c[D-Cys-Phe-D-Pen]OH (JOM-13)” (J Med Chem, 1994).

Sequences of proteins named here, by UniProt entry; tags and fusion partners are left off.
UniProt P97266, whole entry: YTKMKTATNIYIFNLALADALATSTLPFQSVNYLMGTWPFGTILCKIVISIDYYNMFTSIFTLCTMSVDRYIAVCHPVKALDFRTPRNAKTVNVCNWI
UniProt P41143, whole entry, looked up: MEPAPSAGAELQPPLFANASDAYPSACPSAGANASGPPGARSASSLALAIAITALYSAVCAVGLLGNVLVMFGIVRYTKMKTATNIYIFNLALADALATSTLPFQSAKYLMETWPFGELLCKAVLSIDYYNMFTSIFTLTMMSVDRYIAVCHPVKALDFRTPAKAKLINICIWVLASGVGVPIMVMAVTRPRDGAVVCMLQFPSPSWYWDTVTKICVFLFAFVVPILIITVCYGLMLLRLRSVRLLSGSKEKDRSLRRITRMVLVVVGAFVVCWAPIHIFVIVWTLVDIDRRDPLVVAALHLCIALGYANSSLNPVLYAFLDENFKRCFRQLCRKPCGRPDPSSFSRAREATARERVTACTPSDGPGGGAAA
UniProt P35372, whole entry, looked up: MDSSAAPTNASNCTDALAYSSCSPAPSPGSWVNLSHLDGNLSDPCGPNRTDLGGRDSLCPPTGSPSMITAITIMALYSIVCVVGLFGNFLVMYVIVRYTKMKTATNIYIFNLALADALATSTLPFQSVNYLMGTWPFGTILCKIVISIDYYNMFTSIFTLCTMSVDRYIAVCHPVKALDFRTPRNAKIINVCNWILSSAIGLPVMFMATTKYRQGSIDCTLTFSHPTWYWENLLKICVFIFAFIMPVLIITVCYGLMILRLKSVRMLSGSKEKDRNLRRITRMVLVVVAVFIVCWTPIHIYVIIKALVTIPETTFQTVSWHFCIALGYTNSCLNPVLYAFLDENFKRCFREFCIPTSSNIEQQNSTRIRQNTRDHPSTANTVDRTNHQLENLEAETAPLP

Key:
Mu-type opioid receptor [1] = biological target: T1, Mu-type opioid receptor (Cavia porcellus, UniProt P97266); experiment: Displacement of [3H]DAMGO from mu opioid receptor of guinea pig brain membrane
[2] = biological target: Opioid receptors; mu & delta (UniProt P41143+P35372); experiment: Ratio of IC50 against mu opioid to IC50 against delta opioid receptor
Summary of the method: (§1)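 Electrically stimulated tissue in Krebs bicarbonate, 37 °C, 95% O2/5% CO2, 0.1 Hz, supramaximal voltage. MVD used male ICR mouse vas deferens, Mg-free buffer, 0.5 g tension, 2.0 ms pulses. GPI used male Hartley guinea pig ileum myenteric plexus strips, 1 g tension, 0.4 ms pulses. Cumulative agonist doses, 3 min each. IC50 from Hill fit to mean inhibition data, 2–4 tissues.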

Mu-type opioid receptor [3] = biological target: T1, Mu-type opioid receptor; experiment: Inhibitory concentration of compound against mu opioid receptor in guinea pig ileum assay; type: tissue-based; summary of the method: as §1

| Compound | Ki (Mu-type opioid receptor [1]) [nM] | Ratio [2] | IC50 (Mu-type opioid receptor [3]) [nM] |
| --- | --- | --- | --- |
| CC1(C)SSC[C@H](NC(=O)[C@H](N)Cc2ccc(O)cc2)C(=O)N[C@@H](Cc2ccccc2)C(=O)N[C@@H]1C(=O)O | > 10000 | – | – |
| CC1(C)SSC[C@H](NC(=O)[C@@H](N)Cc2ccc(O)cc2)C(=O)N[C@@H](Cc2ccccc2)C(=O)N[C@@H]1C(=O)O | 52 | 110 | 460 |
